Data taken from patent US12570711B2, “Platforms for co-stimulation, novel car designs and other enhancements for adoptive cellular therapy” (Angeles Therapeutics, Inc., priority 2017, dated 2026).

Biological target: T1, CD19 (Homo sapiens, UniProt P15391)
T1 sequence (P15391 20-556): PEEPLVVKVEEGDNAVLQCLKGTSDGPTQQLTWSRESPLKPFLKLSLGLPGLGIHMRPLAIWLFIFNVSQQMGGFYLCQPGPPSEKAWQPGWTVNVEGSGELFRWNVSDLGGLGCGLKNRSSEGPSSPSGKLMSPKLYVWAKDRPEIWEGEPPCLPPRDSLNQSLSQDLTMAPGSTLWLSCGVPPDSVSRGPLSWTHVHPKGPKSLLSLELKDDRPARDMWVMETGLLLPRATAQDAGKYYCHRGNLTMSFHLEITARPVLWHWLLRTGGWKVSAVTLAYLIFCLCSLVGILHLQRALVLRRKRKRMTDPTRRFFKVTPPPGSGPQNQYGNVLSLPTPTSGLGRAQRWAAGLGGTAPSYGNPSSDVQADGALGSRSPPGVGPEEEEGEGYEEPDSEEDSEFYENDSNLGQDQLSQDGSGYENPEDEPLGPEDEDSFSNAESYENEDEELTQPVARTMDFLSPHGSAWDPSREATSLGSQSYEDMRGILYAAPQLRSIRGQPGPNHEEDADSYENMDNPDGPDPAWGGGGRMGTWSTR
Test: CAR-T cell in vitro and in vivo assay panel (IL2 production, proliferation, exhaustion, in vivo expansion, anti-tumor activity)
Set-up: endogenous in cells; host or cells: RAJI cells in vitro; Nalm-6-Luc cells xenografted in NSG mice

For “MYD88-L265P: MYD88 mutant that activates NF-κB constitutively, accessory module”, the “cytokine production, proliferation, in vivo expansion and anti-tumor activity of CAR-T cells” value (accessory module replacing hNEMO-K277A, compared to CAR-T cells lacking the accessory module) was “increased cytokine production, proliferation, in vivo expansion and anti-tumor activity”.

B1: SEQ ID NO: 9683: SIR targeting CD20 (protein)
chain: MALPVTALLLPLALLLHAARPQIVLSQSPAILSASPGEKVTMTCRASSSVSYMHWYQQKPGSSPKPWIYATSNLASGVPARFSGSGSGTSYSFTISRVEAEDAATYYCQQWTFNPPTFGGGTRLEIKRTVAALEDLKNVFPPEVAVFEPSEAEISHTQKATLVCLATGFYPDHVELSWWVNGKEVHSGVCTDPQPLKEQPALNDSRYCLSSRLRVSATFWQNPRNHFRCQVQFYGLSENDEWTQDRAKPVTQIVSAEAWGRADCGFTSESYQQGVLSATILYEILLGKATLYAVLVSALVLMAMVKRKDSRGRAKRSGSGATNFSLLKQAGDVEENPGPTSMDWIWRILFLVGAATGAHSFEQAYLQQSGAELVRPGASVKMSCKASGYTFTSYNMHWVKQTPRQGLEWIGGIYPGNGDTSYNQKFKGKATLTVGKSSSTAYMQLSSLTSEDSAVYFCARYDYNYAMDYWGQGTSVTVSSASTRIQNPDPAVYQLRDSKSSDKSVCLFTDFDSQTNVSQSKDSDVYITDKCVLDMRSMDFKSNSAVAWSNKSDFACANAFNNSIIPEDTFFPSPESSCDVKLVEKSFETDTNLNFQNLSVIGFRILLLKVAGFNLLMTLRLWSSRAKRSGSGVKQTLNFDLLKLAGDVESNPGPSRGHMNRHLWKSQLCEMVQPSGGPAADQDVLGEESPLGKPAMLHLPSEQGAPETLQRCLEENQELRDAIRQSNQILRERCEELLHFQASQREEKEFLMCKFQEARKLVERLGLEKLDLKRQKEQALREVEHLKRCQQQMAEDKASVKAQVTSLLGELQESQSRLEAATKECQALEGRARAASEQARQLESEREALQQQHSVQVDQLRMQGQSVEAALRMERQAASEEKRKLAQLQVAYHQLFQEYDNHIKSSRGMQLEDLKQQLQQAEEALVAAQEVIDKLKEEAEQHKIVMETVPVLKAQADIYKADFQAERQAREKLAEKKELLQEQLEQLQREYSKLKASCQESARIEDMRKRHVEVSQAPLPPAPAYLSSPLALPSQRRSPPEEPPDFCCPKCQYQAPDMDTLQIHVMECIE
modifications: Synthetic Polynucleotide encoding a CAR with optional accessory module(s)
notes: SIR targeting CD20
For B1, the “in vitro and in vivo activity with co-expressed hNEMO-K277A module” value (compared to similar constructs which lack the hNEMO-K277A module) was “improve the in vitro and in vivo performance”.

B2: MTCP-1: accessory module of Table 7 (protein)
chain: MAGEDVGAPPDHLWVHQEGIYRDEYQRTWVAVVEEETSFLRARVQQIQVPLGDAARPSHLLTSQLPLMWQLYPEERYMDNNSRLWQIQHHLMVRGVQELLLKLLPDD
modifications: Synthetic Polynucleotide encoding MTCP-1
B2 was tested, and the “proliferative response of CAR-T cells” value (accessory module replacing hNEMO-K277A) was “increased proliferative response”.
